{"sequences": {"note": "By UniProt entry, the sequences of proteins in these tests, tags left out. Residues count along the entry.", "UniProt P22646, 22-189": "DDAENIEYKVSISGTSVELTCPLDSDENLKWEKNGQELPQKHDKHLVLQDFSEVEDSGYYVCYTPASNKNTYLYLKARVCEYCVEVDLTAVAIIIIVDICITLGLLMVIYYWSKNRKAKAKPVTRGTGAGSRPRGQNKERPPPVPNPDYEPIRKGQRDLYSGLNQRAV"}, "source": "patent US8105830", "key": {"[1]": {"target": "IA^d/OVA (OVA peptide 323-339 in the context of the class II MHC IA^d molecule) (mouse) (UniProt P01012)", "experiment": "cell-based or functional assay"}, "[2]": {"target": "anti-idiotypic, anti-DO11.10 TCR mAb KJ-1", "experiment": "cell-based or functional assay"}, "[3]": {"target": "murine CD3-epsilon (CD3 on the surface of 2B4 T hybridoma cells) (murine) (UniProt P22646)", "experiment": "flow cytometry on 2B4 cells, 1 uL purified bispecific; detected with biotinylated anti-Vβ8.2 (F23.1) and streptavidin-cychrome; no-BISP control mean 8.08"}, "[4]": {"target": "murine CD3-epsilon (CD3 on the surface of 2B4 T hybridoma cells) (murine) (UniProt P22646)", "experiment": "flow cytometry on 2B4 cells, 5 uL purified bispecific; detected with biotinylated anti-Vβ8.2 (F23.1) and streptavidin-cychrome; no-BISP control mean 8.08"}, "[5]": {"target": "murine CD3-epsilon (CD3 on the surface of 2B4 T hybridoma cells) (murine) (UniProt P22646)", "experiment": "flow cytometry on 2B4 cells, 10 uL purified bispecific; detected with biotinylated anti-Vβ8.2 (F23.1) and streptavidin-cychrome; no-BISP control mean 8.08"}, "[6]": {"target": "murine CD3-epsilon (CD3 on the surface of 2B4 T hybridoma cells) (murine) (UniProt P22646)", "experiment": "flow cytometry on 2B4 cells, 1 uL purified bispecific; detected with biotinylated anti-Vβ8.2 (F23.1) and streptavidin-cychrome; no-BISP control median 2.48"}, "[7]": {"target": "murine CD3-epsilon (CD3 on the surface of 2B4 T hybridoma cells) (murine) (UniProt P22646)", "experiment": "flow cytometry on 2B4 cells, 5 uL purified bispecific; detected with biotinylated anti-Vβ8.2 (F23.1) and streptavidin-cychrome; no-BISP control median 2.48"}, "[8]": {"target": "murine CD3-epsilon (CD3 on the surface of 2B4 T hybridoma cells) (murine) (UniProt P22646)", "experiment": "flow cytometry on 2B4 cells, 10 uL purified bispecific; detected with biotinylated anti-Vβ8.2 (F23.1) and streptavidin-cychrome; no-BISP control median 2.48"}, "[9]": {"target": "murine CD3-epsilon (CD3 on the surface of 2B4 T hybridoma cells) (murine) (UniProt P22646)", "experiment": "flow cytometry on 2B4 cells, 1 uL purified bispecific; detected with biotinylated anti-Vβ8.2 (F23.1) and streptavidin-cychrome; no-BISP control peak channel 1"}, "[10]": {"target": "murine CD3-epsilon (CD3 on the surface of 2B4 T hybridoma cells) (murine) (UniProt P22646)", "experiment": "flow cytometry on 2B4 cells, 5 uL purified bispecific; detected with biotinylated anti-Vβ8.2 (F23.1) and streptavidin-cychrome; no-BISP control peak channel 1"}, "[11]": {"target": "murine CD3-epsilon (CD3 on the surface of 2B4 T hybridoma cells) (murine) (UniProt P22646)", "experiment": "flow cytometry on 2B4 cells, 10 uL purified bispecific; detected with biotinylated anti-Vβ8.2 (F23.1) and streptavidin-cychrome; no-BISP control peak channel 1"}}, "data": [{"substance": "pBISP/DO11.10 bispecific sc molecule (DO11.10 scTCR - linker - 145-2C11 sc-Fv - EE tag)", "values": [{"measurement": "IL-2 expressed by 2B4 T hybridoma cells (IL-2 ELISA); plate-bound IA^d/OVA; BISP alone", "setting": "[1]", "result": 0.01}, {"measurement": "IL-2 expressed by 2B4 T hybridoma cells (IL-2 ELISA); plate-bound IA^d/OVA; BISP plus MR5-2 mAb (dimerization)", "setting": "[1]", "result": 0.271}, {"measurement": "IL-2 in supernatant of 2B4 T hybridoma cells (IL-2 ELISA, OD450); immobilized KJ-1; BISP 2 ng/well", "setting": "[2]", "result": 0.013, "unit": "OD450"}, {"measurement": "IL-2 in supernatant of 2B4 T hybridoma cells (IL-2 ELISA, OD450); immobilized KJ-1; BISP 3.9 ng/well", "setting": "[2]", "result": 0.036, "unit": "OD450"}, {"measurement": "IL-2 in supernatant of 2B4 T hybridoma cells (IL-2 ELISA, OD450); immobilized KJ-1; BISP 7.8 ng/well", "setting": "[2]", "result": 0.196, "unit": "OD450"}, {"measurement": "IL-2 in supernatant of 2B4 T hybridoma cells (IL-2 ELISA, OD450); immobilized KJ-1; BISP 15.6 ng/well", "setting": "[2]", "result": 0.72, "unit": "OD450"}, {"measurement": "IL-2 in supernatant of 2B4 T hybridoma cells (IL-2 ELISA, OD450); immobilized KJ-1; BISP 31.2 ng/well", "setting": "[2]", "result": 1.01, "unit": "OD450"}, {"measurement": "IL-2 in supernatant of 2B4 T hybridoma cells (IL-2 ELISA, OD450); immobilized KJ-1; BISP 62.5 ng/well", "setting": "[2]", "result": 1.34, "unit": "OD450"}, {"measurement": "IL-2 in supernatant of 2B4 T hybridoma cells (IL-2 ELISA, OD450); immobilized KJ-1; BISP 125 ng/well", "setting": "[2]", "result": 1.75, "unit": "OD450"}, {"measurement": "IL-2 in supernatant of 2B4 T hybridoma cells (IL-2 ELISA, OD450); immobilized KJ-1; BISP 250 ng/well", "setting": "[2]", "result": 2.07, "unit": "OD450"}, {"measurement": "Mean (FL3-H fluorescence)", "setting": "[3]", "result": 7.51}, {"measurement": "Mean (FL3-H fluorescence)", "setting": "[4]", "result": 19.3}, {"measurement": "Mean (FL3-H fluorescence)", "setting": "[5]", "result": 28.3}, {"measurement": "Median (FL3-H fluorescence)", "setting": "[6]", "result": 3.65}, {"measurement": "Median (FL3-H fluorescence)", "setting": "[7]", "result": 14.5}, {"measurement": "Median (FL3-H fluorescence)", "setting": "[8]", "result": 24.6}, {"measurement": "Peak Ch (FL3-H)", "setting": "[9]", "result": 3}, {"measurement": "Peak Ch (FL3-H)", "setting": "[10]", "result": 15}, {"measurement": "Peak Ch (FL3-H)", "setting": "[11]", "result": 27}]}]}
